Assay in all cases: apparent dissociation constant pKd app (kinobead competition) (-log10(M)); higher = stronger binding
The target of assay [1] is CDK5 (UniProt Q00535).
For assay [2], the target named is CIT (UniProt O14578).
Assay [3] has as its target FGFR4 (UniProt P22455).
Assay [4] addresses FYN (UniProt P06241).
Assay [5] deals with JAK2 (UniProt O60674).
Assay [6] concerns the target T1, MAP2K6 (UniProt P52564).
T1 sequence (whole entry): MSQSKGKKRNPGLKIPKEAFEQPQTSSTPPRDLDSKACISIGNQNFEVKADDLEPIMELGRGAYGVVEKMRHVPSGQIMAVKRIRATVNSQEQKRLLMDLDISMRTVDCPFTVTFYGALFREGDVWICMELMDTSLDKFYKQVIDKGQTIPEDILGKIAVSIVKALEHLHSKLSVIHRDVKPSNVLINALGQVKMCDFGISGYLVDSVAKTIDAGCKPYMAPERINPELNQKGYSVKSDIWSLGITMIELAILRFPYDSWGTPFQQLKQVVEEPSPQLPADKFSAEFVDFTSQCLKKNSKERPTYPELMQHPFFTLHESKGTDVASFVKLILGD

By UniProt entry, the sequences of proteins in these tests, tags left out. Where a name states a change or a piece, a line headed by the entry shows the natural chain unless it says otherwise.
UniProt Q00535, whole entry, looked up: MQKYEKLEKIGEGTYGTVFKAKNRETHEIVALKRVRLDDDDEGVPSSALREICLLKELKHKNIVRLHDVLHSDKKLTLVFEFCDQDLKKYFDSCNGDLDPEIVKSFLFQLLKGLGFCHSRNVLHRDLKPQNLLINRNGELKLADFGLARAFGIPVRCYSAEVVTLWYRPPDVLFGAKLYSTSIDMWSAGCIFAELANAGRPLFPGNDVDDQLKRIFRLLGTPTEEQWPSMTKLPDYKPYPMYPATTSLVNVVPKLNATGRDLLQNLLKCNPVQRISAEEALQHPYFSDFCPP
UniProt O14578, whole entry: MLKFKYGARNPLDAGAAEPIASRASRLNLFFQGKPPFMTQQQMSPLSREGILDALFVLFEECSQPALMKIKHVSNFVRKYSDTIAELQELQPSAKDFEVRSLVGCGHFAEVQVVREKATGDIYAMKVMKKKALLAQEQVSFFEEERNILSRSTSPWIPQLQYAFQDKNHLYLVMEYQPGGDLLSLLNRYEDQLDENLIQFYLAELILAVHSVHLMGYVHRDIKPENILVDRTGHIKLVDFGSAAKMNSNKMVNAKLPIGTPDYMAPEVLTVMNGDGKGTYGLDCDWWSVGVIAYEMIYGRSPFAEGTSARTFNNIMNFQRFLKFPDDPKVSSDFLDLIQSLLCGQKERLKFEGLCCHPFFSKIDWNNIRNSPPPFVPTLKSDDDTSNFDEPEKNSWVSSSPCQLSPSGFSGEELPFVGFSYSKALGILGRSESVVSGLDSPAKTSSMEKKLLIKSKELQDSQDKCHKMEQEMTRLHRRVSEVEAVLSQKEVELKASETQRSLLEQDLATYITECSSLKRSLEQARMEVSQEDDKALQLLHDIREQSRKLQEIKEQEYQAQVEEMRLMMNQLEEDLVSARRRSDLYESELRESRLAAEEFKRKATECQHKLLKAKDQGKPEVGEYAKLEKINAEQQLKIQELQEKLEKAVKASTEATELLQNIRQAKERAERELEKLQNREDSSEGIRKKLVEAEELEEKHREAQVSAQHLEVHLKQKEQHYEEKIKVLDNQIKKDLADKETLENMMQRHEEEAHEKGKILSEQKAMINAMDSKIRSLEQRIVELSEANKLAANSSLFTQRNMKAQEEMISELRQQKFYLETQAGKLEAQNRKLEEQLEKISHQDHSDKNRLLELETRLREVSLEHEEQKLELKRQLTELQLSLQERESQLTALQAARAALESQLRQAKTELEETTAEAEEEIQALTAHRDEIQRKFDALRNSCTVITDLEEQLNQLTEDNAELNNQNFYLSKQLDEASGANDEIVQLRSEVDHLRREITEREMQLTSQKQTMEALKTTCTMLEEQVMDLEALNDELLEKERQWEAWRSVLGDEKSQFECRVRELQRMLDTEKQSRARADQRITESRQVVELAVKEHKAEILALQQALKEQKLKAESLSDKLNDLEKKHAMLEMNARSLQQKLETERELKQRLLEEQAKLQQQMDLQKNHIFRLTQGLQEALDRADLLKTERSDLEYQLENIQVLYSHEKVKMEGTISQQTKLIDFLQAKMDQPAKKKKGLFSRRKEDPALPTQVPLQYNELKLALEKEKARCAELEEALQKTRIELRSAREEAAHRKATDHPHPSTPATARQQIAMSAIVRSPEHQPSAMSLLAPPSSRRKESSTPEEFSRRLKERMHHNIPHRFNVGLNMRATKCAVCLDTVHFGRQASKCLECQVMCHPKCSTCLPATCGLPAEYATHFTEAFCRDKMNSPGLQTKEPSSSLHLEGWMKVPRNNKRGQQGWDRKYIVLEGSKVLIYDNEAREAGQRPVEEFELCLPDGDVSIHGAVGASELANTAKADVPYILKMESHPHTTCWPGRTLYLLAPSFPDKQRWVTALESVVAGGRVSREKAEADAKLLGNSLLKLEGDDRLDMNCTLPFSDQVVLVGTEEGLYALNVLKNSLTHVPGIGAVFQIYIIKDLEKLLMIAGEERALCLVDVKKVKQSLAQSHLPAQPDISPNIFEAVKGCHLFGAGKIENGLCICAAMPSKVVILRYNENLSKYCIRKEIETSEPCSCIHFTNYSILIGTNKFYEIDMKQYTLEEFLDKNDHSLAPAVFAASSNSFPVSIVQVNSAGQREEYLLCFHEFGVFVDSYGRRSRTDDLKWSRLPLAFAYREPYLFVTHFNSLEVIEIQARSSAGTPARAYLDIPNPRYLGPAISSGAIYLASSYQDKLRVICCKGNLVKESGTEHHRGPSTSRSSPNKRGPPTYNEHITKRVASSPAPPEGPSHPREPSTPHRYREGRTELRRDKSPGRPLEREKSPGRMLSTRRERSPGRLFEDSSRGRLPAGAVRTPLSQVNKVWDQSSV
UniProt P22455, whole entry, looked up: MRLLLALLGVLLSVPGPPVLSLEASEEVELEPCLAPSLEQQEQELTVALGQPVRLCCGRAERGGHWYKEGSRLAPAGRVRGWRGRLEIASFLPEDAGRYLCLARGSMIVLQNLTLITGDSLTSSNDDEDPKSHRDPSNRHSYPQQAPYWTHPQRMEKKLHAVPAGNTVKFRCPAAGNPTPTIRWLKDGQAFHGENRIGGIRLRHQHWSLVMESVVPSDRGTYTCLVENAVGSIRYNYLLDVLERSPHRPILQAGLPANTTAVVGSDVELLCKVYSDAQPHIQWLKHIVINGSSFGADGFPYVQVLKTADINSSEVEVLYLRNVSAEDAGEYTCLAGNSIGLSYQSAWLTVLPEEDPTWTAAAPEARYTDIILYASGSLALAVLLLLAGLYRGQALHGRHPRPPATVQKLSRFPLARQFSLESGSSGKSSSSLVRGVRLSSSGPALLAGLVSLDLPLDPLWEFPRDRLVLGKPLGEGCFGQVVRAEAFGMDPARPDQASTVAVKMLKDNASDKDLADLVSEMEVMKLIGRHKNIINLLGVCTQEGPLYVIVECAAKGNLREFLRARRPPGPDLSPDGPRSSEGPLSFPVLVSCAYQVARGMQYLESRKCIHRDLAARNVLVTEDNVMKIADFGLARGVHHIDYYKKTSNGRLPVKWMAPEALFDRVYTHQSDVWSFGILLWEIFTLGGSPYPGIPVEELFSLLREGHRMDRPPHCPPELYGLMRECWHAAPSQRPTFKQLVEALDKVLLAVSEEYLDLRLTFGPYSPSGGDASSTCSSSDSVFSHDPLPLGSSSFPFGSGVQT
UniProt P06241, whole entry, looked up: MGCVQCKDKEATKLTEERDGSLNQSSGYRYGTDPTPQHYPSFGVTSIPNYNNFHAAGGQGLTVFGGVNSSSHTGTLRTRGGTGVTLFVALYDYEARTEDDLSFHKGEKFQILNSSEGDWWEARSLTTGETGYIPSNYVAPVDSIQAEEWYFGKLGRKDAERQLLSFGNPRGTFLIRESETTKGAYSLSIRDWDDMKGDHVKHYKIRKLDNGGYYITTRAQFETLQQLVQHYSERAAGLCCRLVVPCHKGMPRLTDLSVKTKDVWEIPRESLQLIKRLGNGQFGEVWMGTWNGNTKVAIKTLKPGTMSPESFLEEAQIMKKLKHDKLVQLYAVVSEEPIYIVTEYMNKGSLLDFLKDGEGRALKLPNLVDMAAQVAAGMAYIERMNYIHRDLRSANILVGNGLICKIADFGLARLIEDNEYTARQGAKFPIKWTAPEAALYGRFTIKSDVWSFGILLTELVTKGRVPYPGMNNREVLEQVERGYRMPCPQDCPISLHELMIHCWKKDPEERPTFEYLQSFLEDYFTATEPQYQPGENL
UniProt O60674: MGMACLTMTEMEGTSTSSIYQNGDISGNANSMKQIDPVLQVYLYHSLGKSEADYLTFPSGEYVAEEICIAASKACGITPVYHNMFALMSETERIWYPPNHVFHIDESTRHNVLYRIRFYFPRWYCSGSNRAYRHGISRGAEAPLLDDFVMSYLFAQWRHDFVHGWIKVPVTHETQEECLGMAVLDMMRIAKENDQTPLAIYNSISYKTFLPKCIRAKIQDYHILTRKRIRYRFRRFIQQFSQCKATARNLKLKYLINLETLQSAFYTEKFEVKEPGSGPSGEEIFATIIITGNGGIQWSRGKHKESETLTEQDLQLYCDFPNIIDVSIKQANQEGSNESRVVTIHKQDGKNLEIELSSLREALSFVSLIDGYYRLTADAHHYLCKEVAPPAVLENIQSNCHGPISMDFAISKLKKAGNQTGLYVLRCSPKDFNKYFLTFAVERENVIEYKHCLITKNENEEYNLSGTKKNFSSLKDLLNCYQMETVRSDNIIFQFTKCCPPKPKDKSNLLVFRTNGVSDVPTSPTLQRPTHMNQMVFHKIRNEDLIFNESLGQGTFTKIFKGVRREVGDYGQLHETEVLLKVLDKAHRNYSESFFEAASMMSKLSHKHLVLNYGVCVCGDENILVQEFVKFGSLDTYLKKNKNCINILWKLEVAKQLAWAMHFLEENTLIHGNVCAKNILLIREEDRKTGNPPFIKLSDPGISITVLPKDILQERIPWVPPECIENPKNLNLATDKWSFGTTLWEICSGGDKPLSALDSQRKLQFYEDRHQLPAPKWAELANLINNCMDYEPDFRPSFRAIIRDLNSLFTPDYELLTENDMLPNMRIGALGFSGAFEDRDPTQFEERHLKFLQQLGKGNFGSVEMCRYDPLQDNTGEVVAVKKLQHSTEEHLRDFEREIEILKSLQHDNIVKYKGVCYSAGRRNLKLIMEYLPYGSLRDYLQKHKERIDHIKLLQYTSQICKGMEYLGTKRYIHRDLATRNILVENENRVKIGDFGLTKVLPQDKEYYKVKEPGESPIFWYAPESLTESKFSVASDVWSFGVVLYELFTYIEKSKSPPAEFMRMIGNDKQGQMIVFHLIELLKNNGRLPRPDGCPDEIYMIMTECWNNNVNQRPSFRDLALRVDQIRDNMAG
UniProt Q9H2G2: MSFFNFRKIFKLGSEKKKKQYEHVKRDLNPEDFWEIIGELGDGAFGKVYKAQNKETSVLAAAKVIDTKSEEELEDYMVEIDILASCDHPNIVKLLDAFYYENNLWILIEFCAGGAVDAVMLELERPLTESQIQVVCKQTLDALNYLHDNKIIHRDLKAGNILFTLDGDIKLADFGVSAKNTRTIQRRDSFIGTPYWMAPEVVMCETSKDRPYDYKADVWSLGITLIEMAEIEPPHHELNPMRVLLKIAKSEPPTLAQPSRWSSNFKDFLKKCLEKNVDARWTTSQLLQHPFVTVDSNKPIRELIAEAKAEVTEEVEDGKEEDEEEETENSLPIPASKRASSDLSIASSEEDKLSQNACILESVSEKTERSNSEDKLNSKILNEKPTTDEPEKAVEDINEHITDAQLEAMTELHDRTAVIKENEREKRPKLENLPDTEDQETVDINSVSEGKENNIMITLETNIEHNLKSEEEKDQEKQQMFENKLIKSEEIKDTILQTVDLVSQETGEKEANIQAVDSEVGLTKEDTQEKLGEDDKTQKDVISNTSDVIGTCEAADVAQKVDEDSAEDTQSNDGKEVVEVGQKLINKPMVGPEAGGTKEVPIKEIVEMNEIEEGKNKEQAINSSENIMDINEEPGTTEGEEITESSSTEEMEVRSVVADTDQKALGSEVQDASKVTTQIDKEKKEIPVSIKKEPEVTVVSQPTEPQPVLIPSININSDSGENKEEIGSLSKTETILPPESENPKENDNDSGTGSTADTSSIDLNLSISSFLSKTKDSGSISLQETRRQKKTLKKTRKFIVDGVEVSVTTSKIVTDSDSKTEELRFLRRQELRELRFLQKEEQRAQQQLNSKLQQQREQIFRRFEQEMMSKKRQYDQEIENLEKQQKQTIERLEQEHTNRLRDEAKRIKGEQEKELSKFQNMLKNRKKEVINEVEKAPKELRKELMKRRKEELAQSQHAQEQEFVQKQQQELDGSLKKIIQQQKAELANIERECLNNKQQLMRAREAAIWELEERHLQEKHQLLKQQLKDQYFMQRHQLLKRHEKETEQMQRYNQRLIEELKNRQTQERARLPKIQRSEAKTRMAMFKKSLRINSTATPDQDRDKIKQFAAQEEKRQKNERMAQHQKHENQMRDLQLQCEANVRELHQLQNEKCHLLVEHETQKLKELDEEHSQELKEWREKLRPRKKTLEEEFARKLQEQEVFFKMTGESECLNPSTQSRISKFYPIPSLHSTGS
UniProt P07947, whole entry, looked up: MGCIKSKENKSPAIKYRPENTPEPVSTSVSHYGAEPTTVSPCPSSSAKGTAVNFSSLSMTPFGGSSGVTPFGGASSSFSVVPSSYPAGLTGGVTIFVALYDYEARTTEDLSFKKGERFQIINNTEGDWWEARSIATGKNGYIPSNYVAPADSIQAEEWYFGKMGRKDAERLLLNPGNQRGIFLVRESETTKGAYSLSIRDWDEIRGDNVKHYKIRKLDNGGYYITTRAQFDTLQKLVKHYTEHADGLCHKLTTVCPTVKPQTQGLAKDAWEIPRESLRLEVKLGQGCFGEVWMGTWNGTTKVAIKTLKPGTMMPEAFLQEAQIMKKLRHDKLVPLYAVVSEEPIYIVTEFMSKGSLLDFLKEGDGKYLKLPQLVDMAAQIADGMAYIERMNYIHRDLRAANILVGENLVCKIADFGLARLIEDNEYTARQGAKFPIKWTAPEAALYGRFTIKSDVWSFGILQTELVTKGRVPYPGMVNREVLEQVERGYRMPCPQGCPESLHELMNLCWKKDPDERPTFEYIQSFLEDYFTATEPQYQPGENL

Assay [7] addresses T2, NLK (UniProt Q9UBE8).
T2 sequence (whole entry): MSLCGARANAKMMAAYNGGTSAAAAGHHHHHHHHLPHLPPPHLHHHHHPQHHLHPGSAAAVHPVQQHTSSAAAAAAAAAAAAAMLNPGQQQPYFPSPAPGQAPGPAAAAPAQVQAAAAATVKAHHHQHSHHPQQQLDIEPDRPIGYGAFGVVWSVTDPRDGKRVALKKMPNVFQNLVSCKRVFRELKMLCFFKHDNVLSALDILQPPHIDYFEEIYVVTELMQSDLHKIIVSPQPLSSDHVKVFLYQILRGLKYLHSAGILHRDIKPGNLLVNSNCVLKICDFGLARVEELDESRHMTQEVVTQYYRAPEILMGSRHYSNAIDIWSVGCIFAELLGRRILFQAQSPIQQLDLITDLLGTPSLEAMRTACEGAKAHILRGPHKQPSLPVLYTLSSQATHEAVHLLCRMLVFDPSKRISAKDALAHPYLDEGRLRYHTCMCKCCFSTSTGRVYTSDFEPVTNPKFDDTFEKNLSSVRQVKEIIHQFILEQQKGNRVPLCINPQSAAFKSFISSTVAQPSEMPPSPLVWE

For assay [8], the target named is PIP5K3 (UniProt Q9Y2I7).
The target in assay [9] is SLK (UniProt Q9H2G2).
The target of assay [10] is T3, STK17A (UniProt Q9UEE5).
T3 sequence (whole entry): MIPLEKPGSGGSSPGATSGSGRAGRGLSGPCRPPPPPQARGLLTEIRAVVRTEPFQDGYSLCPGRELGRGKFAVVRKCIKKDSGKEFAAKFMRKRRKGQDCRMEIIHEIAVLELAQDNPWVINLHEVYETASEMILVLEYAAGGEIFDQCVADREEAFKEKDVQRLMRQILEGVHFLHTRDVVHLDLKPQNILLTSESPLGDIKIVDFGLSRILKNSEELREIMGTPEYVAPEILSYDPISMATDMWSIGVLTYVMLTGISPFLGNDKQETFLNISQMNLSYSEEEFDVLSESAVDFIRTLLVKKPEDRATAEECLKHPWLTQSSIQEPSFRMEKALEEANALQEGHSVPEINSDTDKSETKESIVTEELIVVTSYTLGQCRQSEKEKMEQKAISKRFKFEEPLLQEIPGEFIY

The target of assay [11] is T4, STK4 (UniProt Q13043).
T4 sequence (whole entry): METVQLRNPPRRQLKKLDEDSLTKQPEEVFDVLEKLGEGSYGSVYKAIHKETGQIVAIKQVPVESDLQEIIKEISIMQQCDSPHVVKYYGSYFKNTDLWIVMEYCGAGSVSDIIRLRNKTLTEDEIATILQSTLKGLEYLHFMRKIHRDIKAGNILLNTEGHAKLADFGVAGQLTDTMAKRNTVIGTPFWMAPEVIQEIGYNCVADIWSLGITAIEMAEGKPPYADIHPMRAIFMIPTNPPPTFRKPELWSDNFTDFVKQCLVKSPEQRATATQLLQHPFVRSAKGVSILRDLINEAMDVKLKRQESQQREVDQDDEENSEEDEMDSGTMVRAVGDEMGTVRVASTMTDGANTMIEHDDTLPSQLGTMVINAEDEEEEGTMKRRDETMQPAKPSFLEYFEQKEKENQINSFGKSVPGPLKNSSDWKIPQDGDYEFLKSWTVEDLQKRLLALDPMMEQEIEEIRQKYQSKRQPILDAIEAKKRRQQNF

Assay [12] deals with T5, STRADA (UniProt Q7RTN6).
T5 sequence (whole entry): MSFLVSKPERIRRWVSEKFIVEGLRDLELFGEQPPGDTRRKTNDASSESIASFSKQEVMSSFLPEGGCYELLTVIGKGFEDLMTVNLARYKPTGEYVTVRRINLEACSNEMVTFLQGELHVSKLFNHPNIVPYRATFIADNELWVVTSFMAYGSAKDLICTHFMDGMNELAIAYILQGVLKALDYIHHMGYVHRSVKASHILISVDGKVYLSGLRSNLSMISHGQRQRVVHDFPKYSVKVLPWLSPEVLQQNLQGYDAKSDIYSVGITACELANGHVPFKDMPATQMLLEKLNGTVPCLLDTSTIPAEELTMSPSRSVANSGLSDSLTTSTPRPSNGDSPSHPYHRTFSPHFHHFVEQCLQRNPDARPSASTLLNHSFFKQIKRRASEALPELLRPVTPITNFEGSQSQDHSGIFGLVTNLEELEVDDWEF

For assay [13], the target named is YES1 (UniProt P07947).

We go through three compounds from the supplement of paper PMC11403291.

± gives the standard deviation of the averaged measurements.

As to `NC(=O)c1cccc2cn(-c3ccc([C@@H]4CCCNC4)cc3)nc12` [Niraparib], the “apparent dissociation constant pKd app (-log10)” value in [1] is under 4.6; in [2], 5.15 ± 0.071; in assay [3], under 4.5; in [4] it was under 4.8; in assay [5], under 4.6; in [6], under 4.5. Besides, the “apparent dissociation constant pKd app (-log10)” value was under 4.6 in assay [7]; under 4.6 in assay [8]; under 4.5 in assay [9]; under 4.6 in assay [10]; under 4.5 in assay [11]; under 4.5 in assay [12]. In assay [13], the “apparent dissociation constant pKd app (-log10)” value is under 4.8.

Turning to `Cn1ncnc1[C@H]1c2n[nH]c(=O)c3cc(F)cc(c23)N[C@@H]1c1ccc(F)cc1` [Talazoparib], the “apparent dissociation constant pKd app (-log10)” value in assay [1] was under 4.6; in [2] it was under 4.5; in assay [3], under 4.5; in [4] it was under 4.8; in [5], under 4.6; in assay [6] it was under 4.5. Besides, the “apparent dissociation constant pKd app (-log10)” value in [7] was under 4.6; in [8], under 4.6; in [9] it was under 4.5; in assay [10] it was under 4.6; in [11], under 4.5; in assay [12], under 4.5. Besides, in [13], the “apparent dissociation constant pKd app (-log10)” value is under 4.8.

On to `O=C(c1cc(Cc2n[nH]c(=O)c3ccccc23)ccc1F)N1CCN(C(=O)C2CC2)CC1` [Olaparib], for which the “apparent dissociation constant pKd app (-log10)” value in [1] is under 4.6; in assay [2], under 4.5; in assay [3] it was under 4.5; in assay [4], under 4.8; in [5] it was under 4.6; in assay [6], under 4.5. Besides, the “apparent dissociation constant pKd app (-log10)” value in [7] was under 4.6; in assay [8] it was under 4.6; in assay [9], under 4.5; in assay [10] it was under 4.6; in assay [11], under 4.5; in assay [12], under 4.5. The “apparent dissociation constant pKd app (-log10)” value in assay [13] is under 4.8.
